Target: human GLP-1 receptor (human) (UniProt P43220)
Experiment: cell-based or functional assay

The chains behind the UniProt entries cited, without tags or fusion partners. Residues count along the entry.
UniProt P43220, 24-463: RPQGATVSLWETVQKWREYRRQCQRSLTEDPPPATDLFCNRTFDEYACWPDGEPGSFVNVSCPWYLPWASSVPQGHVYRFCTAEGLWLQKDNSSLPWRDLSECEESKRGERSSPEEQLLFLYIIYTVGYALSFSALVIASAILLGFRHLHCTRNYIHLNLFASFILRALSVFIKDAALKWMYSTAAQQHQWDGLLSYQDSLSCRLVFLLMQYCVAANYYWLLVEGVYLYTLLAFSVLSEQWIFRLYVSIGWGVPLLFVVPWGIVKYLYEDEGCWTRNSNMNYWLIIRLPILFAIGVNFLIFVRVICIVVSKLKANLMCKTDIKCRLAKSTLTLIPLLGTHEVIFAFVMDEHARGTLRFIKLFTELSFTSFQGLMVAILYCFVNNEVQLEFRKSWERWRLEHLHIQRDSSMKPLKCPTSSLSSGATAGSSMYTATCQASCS

- EC50 hGLP1R (cAMP activity assay): 8 pM
Substance: Native GLP-1 (peptide)
